Results on 1 compound are retold here after ChEMBL document CHEMBL1765015, “Discovery of a potent and efficacious peptide derivative for δ/μ opioid agonist/neurokinin 1 antagonist activity with a 2',6'-dimethyl-L-tyrosine: in vitro, in vivo, and NMR-based structural studies” (J Med Chem, 2011).

Protein sequences, listed by entry. Tags and fused reporters are not part of them.
UniProt P14600, whole entry: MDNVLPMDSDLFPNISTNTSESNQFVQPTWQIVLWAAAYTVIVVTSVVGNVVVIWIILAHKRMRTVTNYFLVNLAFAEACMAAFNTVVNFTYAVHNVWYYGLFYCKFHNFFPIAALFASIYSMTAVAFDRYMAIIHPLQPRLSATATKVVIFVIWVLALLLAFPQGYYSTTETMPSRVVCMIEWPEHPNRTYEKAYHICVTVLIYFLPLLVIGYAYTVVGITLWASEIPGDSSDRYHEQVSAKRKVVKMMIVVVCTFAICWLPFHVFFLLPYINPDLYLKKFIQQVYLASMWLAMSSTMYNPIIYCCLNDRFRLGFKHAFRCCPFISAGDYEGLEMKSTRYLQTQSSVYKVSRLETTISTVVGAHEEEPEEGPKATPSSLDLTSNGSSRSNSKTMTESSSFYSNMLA

The assay has as its target Substance-P receptor (Rattus norvegicus, UniProt P14600). The assay can be described thus: Displacement of [3H]substance P from rat NK1 receptor expressed in CHO cells. The class given is cell-based. (In general: Displacement assays read how much labelled ligand stays bound in the presence of the test substance.)

The structures appear in SMILES notation.

Broadly, the IC50 is the midpoint of a concentration-inhibition curve. A high value points to weaker potency. With `CCCC[C@H](NC(=O)[C@H](Cc1ccccc1)NC(=O)CNC(=O)[C@@H](C)NC(=O)[C@@H](N)Cc1c(C)cc(O)cc1C)C(=O)N1CCC[C@H]1C(=O)N[C@@H](CC(C)C)C(=O)N[C@@H](Cc1c[nH]c2ccccc12)C(=O)NCc1cc(C(F)(F)F)cc(C(F)(F)F)c1`, the IC50 is 52.5 nM.
